Assay results published in PubChem BioAssay AID1778 (Sanford-Burnham Center for Chemical Genomics, 2009).
This is a selection; strong and weak results do not stand in their true shares. Potency and affinity values are given separately. Some structures show a salt or complex split into parts, the way the source records it. Activity calls are given as the source filed them. No stated cut-off is given here; in the data, active means inhibition above about 50%; inactive means the rest.

Protein sequences, listed by entry. Tags and fused reporters are not part of them.
UniProt P41145, whole entry: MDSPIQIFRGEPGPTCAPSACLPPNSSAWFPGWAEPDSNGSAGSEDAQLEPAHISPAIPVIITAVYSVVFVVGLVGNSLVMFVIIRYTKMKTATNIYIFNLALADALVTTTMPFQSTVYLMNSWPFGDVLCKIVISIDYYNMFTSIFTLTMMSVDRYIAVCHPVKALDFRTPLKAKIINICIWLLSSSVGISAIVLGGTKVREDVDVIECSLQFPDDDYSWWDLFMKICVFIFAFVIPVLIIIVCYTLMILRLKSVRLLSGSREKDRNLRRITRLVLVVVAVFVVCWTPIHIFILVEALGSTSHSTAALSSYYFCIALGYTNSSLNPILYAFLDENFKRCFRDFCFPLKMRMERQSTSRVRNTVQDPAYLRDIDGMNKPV

target: Kappa-type opioid receptor (Homo sapiens) (UniProt P41145); assay: KOR antagonists, beta-arrestin recruitment, cell-based, luminescence, uHTS (AID 1778); conditions: antagonist mode, at 10 µM, hits give high values

| SMILES | inhibition |
| --- | --- |
| CCCOc1ccc(NP(C)(=O)Oc2ccc(Cl)cc2)cc1 (stereo not drawn) | inactive: -9.2% |
| CP(=O)(Nc1ccc(SC(F)(F)F)cc1)Oc1ccccc1 (stereo not drawn) | inactive: -17.7% |
| COc1ccccc1OP(C)(=O)Nc1c(C)cccc1C (stereo not drawn) | inactive: 9.6% |
| CCOC(=O)C(CC)C1=NC(C)(C)Cc2ccccc21.O=[N+]([O-])c1cc([N+](=O)[O-])c(O)c([N+](=O)[O-])c1 (stereo not drawn) | inactive: 19% |
| CN(C)C1(CNC(=O)c2ccc(S(C)(=O)=O)cc2)CCCCC1 | inactive: -10.6% |
| O=[N+]([O-])c1cc([N+](=O)[O-])c(Nc2nnnn2CCO)c([N+](=O)[O-])c1 | inactive: 45.5% |
| Cc1nc2ccc3ccccc3c2s1.O=[N+]([O-])c1cc([N+](=O)[O-])c(O)c([N+](=O)[O-])c1 | inactive: -23.5% |
| O=[N+]([O-])c1cc([N+](=O)[O-])c(-n2nnc3ccccc32)c([N+](=O)[O-])c1 | inactive: 15.1% |
| Cc1cc(C)cc(OP(C)(=O)Nc2ccccn2)c1 (stereo not drawn) | inactive: -2.9% |
| CP(=O)(Nc1cccc(Br)c1)Oc1ccccc1 (stereo not drawn) | inactive: -34.8% |
| Cc1ccc(C)c(NP(C)(=O)Oc2ccccc2)c1 (stereo not drawn) | inactive: -7.9% |
| Cc1cc(C)cc(OP(C)(=O)Nc2ccc(C)cc2C)c1 (stereo not drawn) | inactive: -19.1% |
| CCOC(=O)c1ccc(NP(C)(=O)Oc2cc(C)cc(C)c2)cc1 (stereo not drawn) | inactive: 8.6% |
| COc1ccccc1OP(C)(=O)Nc1cccc(Br)c1 (stereo not drawn) | inactive: 11.5% |
| COc1cc(C(=O)NCC2(N3CCOCC3)CCCCC2)cc(Cl)c1OC(C)C | inactive: -0.7% |
| CC1=NCCc2c1[nH]c1ccccc21.O=[N+]([O-])c1cc([N+](=O)[O-])c(O)c([N+](=O)[O-])c1 | inactive: 26.7% |
| O=C(O)c1cccc(Nc2c([N+](=O)[O-])cc([N+](=O)[O-])cc2[N+](=O)[O-])c1 | inactive: 14.8% |
| COc1ccc(OP(C)(=O)Nc2cccc(F)c2)cc1 (stereo not drawn) | inactive: -22.6% |
| Cc1cc(C)cc(OP(C)(N)=O)c1 (stereo not drawn) | inactive: 10.9% |
| CCOC(=O)c1ccc(NP(C)(=O)Oc2ccccc2)cc1 (stereo not drawn) | inactive: -26.1% |
| Cc1ccc(NP(C)(=O)Oc2ccccc2)c(C)c1 (stereo not drawn) | inactive: -40.6% |
| COc1ccccc1OP(C)(=O)Nc1ccc(C)cc1 (stereo not drawn) | inactive: -20.3% |

| SMILES | inhibition |
| --- | --- |
| Cc1cccc(C)c1OP(C)(N)=O (stereo not drawn) | inactive: 0.3% |
| CC(C)(C)c1ccc(OP(C)(=O)Nc2ccc(SC(F)(F)F)cc2)cc1 (stereo not drawn) | inactive: 2.7% |
| O=[N+]([O-])c1ccc2c(c1)C=Nc1ccccc1O2 | inactive: -97.8% |
| CCN(CC)CCn1c(NCc2ccc(OC)cc2)nc2ccccc21 | inactive: 18% |
| CCN(CC)CCCOC(=O)C(O)(c1ccccc1)c1ccccc1 | inactive: -18.2% |
| CP(=O)(Nc1ccccn1)Oc1ccc(Cl)cc1 (stereo not drawn) | inactive: -25.6% |
| CCOP(C)(=S)SCC(=O)NC(C)C(=O)O (stereo not drawn) | inactive: -31.1% |
| CCOC(=O)c1ccc(NP(C)(=O)Oc2ccc(OC)cc2)cc1 (stereo not drawn) | inactive: -24.6% |
| Cc1cc(C)cc(OP(C)(=O)Nc2ccc(SC(F)(F)F)cc2)c1 (stereo not drawn) | inactive: 15.8% |
| CP(=O)(NC(=O)Nc1ccccc1)Oc1ccccc1 (stereo not drawn) | inactive: 3.2% |
| CCc1ccc(OP(C)(=O)N2CCN(c3ccc([N+](=O)[O-])cc3)CC2)cc1 (stereo not drawn) | inactive: 23.3% |
| CP(=O)(Oc1ccccc1)OC(c1ccccc1)C(F)(F)F (stereo not drawn) | inactive: -3.4% |
| Cc1cccc(C)c1OP(C)(=O)Nc1ccc(SC(F)(F)F)cc1 (stereo not drawn) | inactive: -4.4% |
| CP(=O)(Nc1ccc(SC(F)(F)F)cc1)Oc1ccc(Cl)cc1 (stereo not drawn) | inactive: 32.9% |
| COc1ccccc1OP(C)(=O)Nc1ccccc1 (stereo not drawn) | inactive: -2.3% |
| C=CCC1(Nc2ccccc2)CC(C)N(C)CC1C (stereo not drawn) | inactive: -6% |
| CP(=O)(Nc1ccccc1Br)Oc1ccccc1 (stereo not drawn) | inactive: 1.3% |
| CP(=S)(Nn1cnnc1)Oc1ccccc1 (stereo not drawn) | inactive: 13.5% |
| CCCCOc1ccc(C(=O)NCC2(N3CCCCC3)CCCCC2)cc1OC | inactive: -22.7% |
| CP(=O)(OC12CC3CC(CC(C3)C1)C2)OC12CC3CC(CC(C3)C1)C2 | inactive: 16.2% |
| CCOC(=O)c1ccc(NP(C)(=O)Oc2ccc(Cl)cc2)cc1 (stereo not drawn) | inactive: 9.4% |
| CCCCN1CCC(C#N)(Nc2ccccc2)CC1 | inactive: 14.7% |

| SMILES | inhibition |
| --- | --- |
| CN(C)C(=O)c1c([N+](=O)[O-])cc([N+](=O)[O-])cc1[N+](=O)[O-] | inactive: -13.7% |
| CP(=O)(Nc1ccc(Cl)cc1)Oc1ccc(F)cc1 (stereo not drawn) | inactive: 5% |
| COc1ccccc1OP(C)(=O)Nc1ccccc1Br (stereo not drawn) | inactive: 10% |
| CC(C)(C)c1ccc(OP(C)(=O)O)cc1 | inactive: 4.9% |
| CCc1ccc(OP(C)(=O)Nc2cccnc2)cc1 (stereo not drawn) | inactive: -23.6% |
| CP(=O)(Oc1ccccc1)N1CCOC1=O (stereo not drawn) | inactive: 2.2% |
| O=C(OCCCN1CCCC1)C(O)(c1ccccc1)C1CCCCC1 (stereo not drawn) | inactive: -24.7% |
| COc1ccccc1OP(C)(=O)Nc1c(C)n(C)n(-c2ccccc2)c1=O (stereo not drawn) | inactive: 19.3% |
| COc1ccc(OP(C)(=O)Nc2ccc(Br)cc2)cc1 (stereo not drawn) | inactive: 9.2% |
| CCN(CC)CC(O)COC(=O)C(O)(c1ccccc1)C1CCCCC1 (stereo not drawn) | inactive: -8.8% |
| CCc1ccc(OP(C)(=O)O)cc1 | inactive: 2.7% |
| COc1ccccc1OP(C)(=O)Nc1ccc(C)cc1C (stereo not drawn) | inactive: 9.2% |
| CP(=O)(Nc1ccccn1)Oc1ccccc1 (stereo not drawn) | inactive: 10.3% |
| Cc1c(NP(C)(=O)Oc2ccc(C(C)C)cc2)c(=O)n(-c2ccccc2)n1C (stereo not drawn) | inactive: -12.2% |
| CN(C)CCOC(=O)C(O)(c1ccccc1)C1CCCC1 (stereo not drawn) | inactive: -8.3% |
| COc1ccc(OP(C)(=O)Nc2ccccn2)cc1 (stereo not drawn) | inactive: -6.7% |
| COc1ccccc1OP(C)(=O)Nc1ccc(Br)cc1 (stereo not drawn) | inactive: 6.9% |
| CP(=O)(Nc1ccc(Cl)cc1Cl)Oc1ccccc1 (stereo not drawn) | inactive: 22% |
| CP(=O)(OCCOc1ccccc1)OCCOc1ccccc1 | inactive: 9.6% |
| Cc1nc2ccc3ccccc3c2o1.O=[N+]([O-])c1cc([N+](=O)[O-])c(O)c([N+](=O)[O-])c1 | inactive: -8.9% |
| COc1ccc(OP(C)(=O)Nc2ccccc2Br)cc1 (stereo not drawn) | inactive: -12.1% |
| COc1ccccc1OP(C)(=O)Nc1ccc(C)c(C)c1 (stereo not drawn) | inactive: -18.9% |

| SMILES | inhibition |
| --- | --- |
| CCCCCOc1ccc(NP(C)(=O)Oc2ccc(Cl)cc2Cl)cc1 (stereo not drawn) | inactive: -8.5% |
| O=[N+]([O-])c1cc([N+](=O)[O-])c(OC2CCCCC2O)c([N+](=O)[O-])c1 (stereo not drawn) | inactive: 9.6% |
| CP(=O)(Nc1ccccc1)Oc1ccc(F)cc1 (stereo not drawn) | inactive: -18% |
| CCN(CC)CCCOC(=O)C(O)(c1ccccc1)C1CCCCC1 (stereo not drawn) | inactive: -17.4% |
| COc1ccc(OP(C)(=O)Nc2ccc(SC(F)(F)F)cc2)cc1 (stereo not drawn) | inactive: -24.5% |
| CCOC(=O)c1ccc(NP(C)(=O)Oc2ccc(F)cc2)cc1 (stereo not drawn) | inactive: -6.4% |
| COc1ccc2c(c1O)-c1c(O)c(OC)cc3c1[C@H](C2)[N+](C)(C)CC3.O=[N+]([O-])c1cc([N+](=O)[O-])c([O-])c([N+](=O)[O-])c1[O-] | inactive: 19.7% |
| O=C(OCCN1CCN(CCOCc2ccccc2)CC1)C(O)(c1ccccc1)c1ccccc1 | inactive: -31.5% |
| O=C(OC1CN2CCC1CC2)c1ccc([N+](=O)[O-])cc1 (stereo not drawn) | inactive: -1.3% |
| CC(C)c1ccc(OP(C)(=O)Nc2ccc(SC(F)(F)F)cc2)cc1 (stereo not drawn) | inactive: 8.9% |
| CP(=O)(Nc1ccccc1F)Oc1ccccc1 (stereo not drawn) | inactive: -4.9% |
| Cc1ccccc1NP(C)(=O)Nc1ccccc1C | inactive: 27.6% |
| CP(=O)(Nc1ccc2c(c1)OCCO2)Oc1ccccc1 (stereo not drawn) | inactive: 5.6% |
| CCOP(C)(=S)SCC(=O)NC(C)(CC)C(=O)O (stereo not drawn) | inactive: 21.2% |
| CP(=O)(Nc1ccc(SC(F)(F)F)cc1)Oc1ccc(F)cc1 (stereo not drawn) | inactive: -8.2% |
| Cc1cc(-c2cccc3ccccc23)c(C)cn1.O=[N+]([O-])c1cc([N+](=O)[O-])c(O)c([N+](=O)[O-])c1 | inactive: -27.4% |
| O=[N+]([O-])c1cc([N+](=O)[O-])c(NCC2CCS(=O)(=O)C2)c([N+](=O)[O-])c1 (stereo not drawn) | inactive: 48.2% |
| O=[N+]([O-])c1ccc(OP2(=O)COCCO2)cc1 (stereo not drawn) | inactive: 19.8% |
| COc1ccc(NP(C)(=O)Oc2ccccc2OC)cc1 (stereo not drawn) | inactive: 10.2% |
| CN(C)CCOC(=O)C(O)(c1ccccc1)C1CCCCC1 (stereo not drawn) | inactive: 18.2% |
| CN(C)C1(CNC(=O)c2ccc(Cl)c(S(N)(=O)=O)c2)CCCCC1 | inactive: 7.5% |
| COc1ccc(OP(C)(=O)Nc2cccc(Br)c2)cc1 (stereo not drawn) | inactive: 14.6% |
